From PubChem BioAssay (NCI)
Some results for these compounds are left out of this collection, so the calls shown say nothing about other tests.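 Tested at 5 concentrations; 48 h exposure; 96-well plates; endpoints linearly interpolated, else capped at highest concentration. GI50 marks 50% less growth. At the TGI there is no net growth.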

Columns and labels:
Assay in all cases: inhibition of tumour cell growth, NCI panel, 48 h
NCI-H23 lung = tested on: NCI-H23 lung
NCI-H322M lung = tested on: NCI-H322M lung
SNB-19 CNS = tested on: SNB-19 CNS
SF-295 CNS = tested on: SF-295 CNS
MDA-MB-435 = tested on: MDA-MB-435
SK-MEL-2 melanoma = tested on: SK-MEL-2 melanoma
NCI-H226 lung = tested on: NCI-H226 lung
EKVX NSCLC = tested on: EKVX NSCLC
HS 578T breast = tested on: HS 578T breast
ACHN renal = tested on: ACHN renal
MCF7 breast = tested on: MCF7 breast
CCRF-CEM leukemia = tested on: CCRF-CEM leukemia
IGROV1 ovarian = tested on: IGROV1 ovarian
COLO 205 colon = tested on: COLO 205 colon
MALME-3M melanoma = tested on: MALME-3M melanoma
LOX IMVI melanoma = tested on: LOX IMVI melanoma
BT-549 breast = tested on: BT-549 breast
HCT-116 colon = tested on: HCT-116 colon
RPMI-8226 leukemia = tested on: RPMI-8226 leukemia
MDA-N = tested on: MDA-N
MDA-MB-231 breast = tested on: MDA-MB-231 breast
A549 NSCLC = tested on: A549 NSCLC
SK-MEL-5 melanoma = tested on: SK-MEL-5 melanoma
SR leukemia = tested on: SR leukemia
UACC-257 melanoma = tested on: UACC-257 melanoma
OVCAR-3 ovarian = tested on: OVCAR-3 ovarian
SK-OV-3 ovarian = tested on: SK-OV-3 ovarian
SF-539 CNS = tested on: SF-539 CNS
NCI-H522 lung = tested on: NCI-H522 lung
NCI/ADR-RES ovarian = tested on: NCI/ADR-RES ovarian
786-0 renal = tested on: 786-0 renal
A498 renal = tested on: A498 renal
HOP-92 NSCLC = tested on: HOP-92 NSCLC
RXF 393 renal = tested on: RXF 393 renal
U251 CNS = tested on: U251 CNS
OVCAR-8 ovarian = tested on: OVCAR-8 ovarian
HL-60(TB) leukemia = tested on: HL-60(TB) leukemia
SN12C renal = tested on: SN12C renal
MOLT-4 leukemia = tested on: MOLT-4 leukemia
PC-3 prostate = tested on: PC-3 prostate
OVCAR-5 ovarian = tested on: OVCAR-5 ovarian
UACC-62 melanoma = tested on: UACC-62 melanoma
K-562 leukemia = tested on: K-562 leukemia
HOP-62 NSCLC = tested on: HOP-62 NSCLC
SNB-75 CNS = tested on: SNB-75 CNS
UO-31 renal = tested on: UO-31 renal
DU-145 prostate = tested on: DU-145 prostate
T-47D breast = tested on: T-47D breast
OVCAR-4 ovarian = tested on: OVCAR-4 ovarian
SK-MEL-28 melanoma = tested on: SK-MEL-28 melanoma
TK-10 renal = tested on: TK-10 renal
HT29 colon = tested on: HT29 colon
CAKI-1 renal = tested on: CAKI-1 renal
HCT-15 colon = tested on: HCT-15 colon
SF-268 CNS = tested on: SF-268 CNS
M14 melanoma = tested on: M14 melanoma

Work on `O=C(OC1CN2CCC1CC2)C(O)(C#Cc1ccccc1)c1ccccc1` (configuration not stated) yielded a GI50 (NCI-H23 lung) of over 100 µM, a TGI (NCI-H23 lung) of over 100 µM and a GI50 (NCI-H322M lung) of over 100 µM. For the same compound, the TGI (NCI-H322M lung) was over 100 µM, the GI50 (SNB-19 CNS) was over 100 µM and the TGI (SNB-19 CNS) was over 100 µM. The GI50 (SF-295 CNS) was over 100 µM, the TGI (SF-295 CNS) was over 100 µM and the GI50 (MDA-MB-435) was over 100 µM. It also gave a TGI (MDA-MB-435) of over 100 µM, a GI50 (SK-MEL-2 melanoma) of over 100 µM and a TGI (SK-MEL-2 melanoma) of over 100 µM. For the same compound, the GI50 (NCI-H226 lung) was over 100 µM, the TGI (NCI-H226 lung) was over 100 µM and the GI50 (EKVX NSCLC) was over 100 µM. The TGI (EKVX NSCLC) was over 100 µM, the GI50 (HS 578T breast) was over 100 µM and the TGI (HS 578T breast) was over 100 µM. It also gave a GI50 (ACHN renal) of over 100 µM, a TGI (ACHN renal) of over 100 µM and a GI50 (MCF7 breast) of over 100 µM. For the same compound, the TGI (MCF7 breast) was over 100 µM, the GI50 (CCRF-CEM leukemia) was over 100 µM and the TGI (CCRF-CEM leukemia) was over 100 µM. For the same compound, the GI50 (IGROV1 ovarian) was 96.4 µM, the TGI (IGROV1 ovarian) was over 100 µM and the GI50 (COLO 205 colon) was over 100 µM. It also gave a TGI (COLO 205 colon) of over 100 µM, a GI50 (MALME-3M melanoma) of over 100 µM and a TGI (MALME-3M melanoma) of over 100 µM. It also gave a GI50 (LOX IMVI melanoma) of over 100 µM, a TGI (LOX IMVI melanoma) of over 100 µM and a GI50 (BT-549 breast) of over 100 µM. For the same compound, the TGI (BT-549 breast) was over 100 µM, the GI50 (HCT-116 colon) was over 100 µM and the TGI (HCT-116 colon) was over 100 µM. It also gave a GI50 (RPMI-8226 leukemia) of over 100 µM, a TGI (RPMI-8226 leukemia) of over 100 µM and a GI50 (MDA-N) of over 100 µM. It also gave a TGI (MDA-N) of over 100 µM, a GI50 (MDA-MB-231 breast) of over 100 µM and a TGI (MDA-MB-231 breast) of over 100 µM. The GI50 (A549 NSCLC) was over 100 µM, the TGI (A549 NSCLC) was over 100 µM and the GI50 (SK-MEL-5 melanoma) was over 100 µM. For the same compound, the TGI (SK-MEL-5 melanoma) was over 100 µM, the GI50 (SR leukemia) was over 100 µM and the TGI (SR leukemia) was over 100 µM. For the same compound, the GI50 (UACC-257 melanoma) was over 100 µM, the TGI (UACC-257 melanoma) was over 100 µM and the GI50 (OVCAR-3 ovarian) was over 100 µM. It also gave a TGI (OVCAR-3 ovarian) of over 100 µM, a GI50 (SK-OV-3 ovarian) of over 100 µM and a TGI (SK-OV-3 ovarian) of over 100 µM. The GI50 (SF-539 CNS) was over 100 µM, the TGI (SF-539 CNS) was over 100 µM and the GI50 (NCI-H522 lung) was over 100 µM. For the same compound, the TGI (NCI-H522 lung) was over 100 µM, the GI50 (NCI/ADR-RES ovarian) was over 100 µM and the TGI (NCI/ADR-RES ovarian) was over 100 µM. It also gave a GI50 (786-0 renal) of over 100 µM, a TGI (786-0 renal) of over 100 µM and a GI50 (A498 renal) of over 100 µM. The TGI (A498 renal) was over 100 µM, the GI50 (HOP-92 NSCLC) was over 100 µM and the TGI (HOP-92 NSCLC) was over 100 µM. The GI50 (RXF 393 renal) was over 100 µM, the TGI (RXF 393 renal) was over 100 µM and the GI50 (U251 CNS) was over 100 µM. For the same compound, the TGI (U251 CNS) was over 100 µM, the GI50 (OVCAR-8 ovarian) was over 100 µM and the TGI (OVCAR-8 ovarian) was over 100 µM. The GI50 (HL-60(TB) leukemia) was over 100 µM, the TGI (HL-60(TB) leukemia) was over 100 µM and the GI50 (SN12C renal) was over 100 µM. For the same compound, the TGI (SN12C renal) was over 100 µM, the GI50 (MOLT-4 leukemia) was over 100 µM and the TGI (MOLT-4 leukemia) was over 100 µM. For the same compound, the GI50 (PC-3 prostate) was over 100 µM, the TGI (PC-3 prostate) was over 100 µM and the GI50 (OVCAR-5 ovarian) was over 100 µM. For the same compound, the TGI (OVCAR-5 ovarian) was over 100 µM, the GI50 (UACC-62 melanoma) was over 100 µM and the TGI (UACC-62 melanoma) was over 100 µM. For the same compound, the GI50 (K-562 leukemia) was over 100 µM, the TGI (K-562 leukemia) was over 100 µM and the GI50 (HOP-62 NSCLC) was over 100 µM. For the same compound, the TGI (HOP-62 NSCLC) was over 100 µM, the GI50 (SNB-75 CNS) was over 100 µM and the TGI (SNB-75 CNS) was over 100 µM. For the same compound, the GI50 (UO-31 renal) was over 100 µM, the TGI (UO-31 renal) was over 100 µM and the GI50 (DU-145 prostate) was over 100 µM. For the same compound, the TGI (DU-145 prostate) was over 100 µM, the GI50 (T-47D breast) was over 100 µM and the TGI (T-47D breast) was over 100 µM. For the same compound, the GI50 (OVCAR-4 ovarian) was over 100 µM, the TGI (OVCAR-4 ovarian) was over 100 µM and the GI50 (SK-MEL-28 melanoma) was over 100 µM. The TGI (SK-MEL-28 melanoma) was over 100 µM, the GI50 (TK-10 renal) was over 100 µM and the TGI (TK-10 renal) was over 100 µM. The GI50 (HT29 colon) was over 100 µM, the TGI (HT29 colon) was over 100 µM and the GI50 (CAKI-1 renal) was over 100 µM. For the same compound, the TGI (CAKI-1 renal) was over 100 µM, the GI50 (HCT-15 colon) was over 100 µM and the TGI (HCT-15 colon) was over 100 µM. The GI50 (SF-268 CNS) was over 100 µM, the TGI (SF-268 CNS) was over 100 µM and the GI50 (M14 melanoma) was over 100 µM. For the same compound, the TGI (M14 melanoma) was over 100 µM.
